Laboratory results reported in patent US8652473B2, “Antibodies to EGF receptor epitope peptides and uses thereof” (Ludwig Institute for Cancer Research Ltd., priority 2004, dated 2014).

Key:
Set-up in all cases: species or system human
[1] = test system: mAb 806 binding to the 1-501 and 274-501 EGFR fragments; assay: Peptide competition of mAb 806 immunoblotting; details: 100-fold molar excess of competing peptide
[2] = test system: mAb 806 binding to immobilized 1-501 EGFR fragment; assay: ELISA, peptide inhibition of mAb […] binding to 1-501 EGFR; details: peptide in solution, increasing concentrations
[3] = test system: mAb 806 binding to immobilized 287-302 EGFR peptide; assay: BIAcore, soluble EGFR peptides blocking mAb 806 binding; details: mAb […] 500 nM; soluble peptide 5 and 10 μM; amine coupling
Experimental: FIG. 5A-5B. Analysis of mAb 806 binding to peptides by BIAcore. A, The 287-302 EGFR peptide was immobilized on the surface by thiol coupling and the mAb 806 antibody passed over at increasing concentrations (31.25, 62.5, 125, 250, 500 and 1000 nM). Binding affinity was then determined by Scatchard analysis (insert). B, The 287-302 EGFR peptide was immobilized on the surface by amine coupling and the mAb 806 antibody at a concentration of 500 nM was passed over the surface in the presence of the 287-302 (upper panel), 287-298 (middle panel) or 287-301 (lower panel) EGFR peptides (5 and 10 μM).
A BIAcore 3000 was used for all experiments. The peptides containing the putative mAb 806 epitope were immobilised on a CM5 sensor chip using amine or thiol-disulphide exchange coupling at a flow rate of 5 μl/min (34). The 806 antibody was passed over the sensor surface at a flow rate of 5 μl/min at 25° C. The surfaces were generated between runs by injecting 10 mM HCl at a flow rate of 10 μl/min.

[4] = test system: mAb 806 binding to immobilized 501-Fc; assay: ELISA, peptide inhibition of mAb 806 binding to 501-Fc; details: increasing concentrations of peptide

With “CGADSYEMEEDGVRKC (epitope peptide) [287-302 EGFR peptide]” the “inhibition of mAb […] binding in immunoblot” value [1] was “able to inhibit”, the “inhibition of mAb […] binding to immobilized 1-501 fragment (ELISA)” value [2] was “able to inhibit” and the “inhibition of mAb […] binding to immobilized 287-302 EGFR peptide (BIAcore)” value [3] was “inhibited mAb 806 binding in a dose dependent manner”.

With “CGADSYEMEEDGVRKC [Oxidized 287-302 EGFR peptide, prepared by overnight aerial oxidation in alkaline conditions]” the “inhibition of mAb […] binding to 501-Fc (ELISA)” value [4] was “inhibited binding of mAb 806 to 501-Fc in a dose dependent manner”.

For “S-carboxymethylated 287-302 EGFR peptide: 287-302 peptide reacted with dithiothreitol followed by iodoacetamide (CGADSYEMEEDGVRKC)”, the “inhibition of mAb […] binding to 501-Fc (ELISA)” value [4] was “unable to inhibit”.
